Experimental findings from PubChem BioAssay AID1021 (Emory University Molecular Libraries Screening Center, 2008) are described below.

Sequences of proteins named here, by UniProt entry; tags and fusion partners are left off.
UniProt Q07820, whole entry: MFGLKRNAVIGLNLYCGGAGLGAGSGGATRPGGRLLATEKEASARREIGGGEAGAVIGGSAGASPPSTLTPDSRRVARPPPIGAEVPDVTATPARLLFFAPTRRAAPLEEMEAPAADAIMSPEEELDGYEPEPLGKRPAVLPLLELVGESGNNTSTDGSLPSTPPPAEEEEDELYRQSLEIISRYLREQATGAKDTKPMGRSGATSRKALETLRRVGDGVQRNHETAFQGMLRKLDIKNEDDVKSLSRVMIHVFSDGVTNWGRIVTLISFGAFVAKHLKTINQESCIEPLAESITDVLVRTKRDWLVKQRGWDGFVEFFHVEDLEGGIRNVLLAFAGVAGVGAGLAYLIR

This is a selection; strong and weak results do not stand in their true shares. Some salts and complexes are drawn in separate pieces, as the source files them; their charges need not balance. The source made the active and inactive calls.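 Rule for the calls: active = compounds that cut the binding signal by more than half at the single screening dose; inactive = the rest.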

The assay concerns the target Induced myeloid leukemia cell differentiation protein Mcl-1 (Homo sapiens) (UniProt Q07820). Kind of assay: Mcl-1/Bid binding inhibitors, primary screen, biochemical, TR-FRET, 1536-well (AID 1021).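 Note: His-tagged Mcl-1 with europium anti-His antibody binding Bid BH3 peptide; 0% = Mcl-1 plus peptide wells and 100% = peptide-only wells.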 As to conditions: TR-FRET Mcl-1/Bid-Dy647 peptide binding, at 21.7 µM, active compounds read high. On the technique in general: TR-FRET usually uses a lanthanide donor and a delayed reading to cut background.
Turning to `CCOP(C)(=S)SCC(=O)NC(C)C(=O)O` (stereo not given), the inhibition (usually the drop in the measured response relative to a control, in per cent) was inactive: -24%.

Consider `CCOC(=O)c1ccc(NP(C)(=O)Oc2ccc(OC)cc2)cc1` (stereo not given), for which the inhibition is inactive: -37.5%.

Take `CP(=O)(Nc1ccccn1)Oc1ccc(Cl)cc1` (stereo not given): the inhibition was inactive: -4.72%.

Take `CP(=O)(Oc1ccccc1)OC(c1ccccc1)C(F)(F)F` (stereo not given): the inhibition was inactive: -9.87%.

As to `Cc1cccc(C)c1OP(C)(=O)Nc1ccc(SC(F)(F)F)cc1` (stereo not given), the inhibition was inactive: -9.2%.

For the compound `CP(=O)(Nc1ccc(SC(F)(F)F)cc1)Oc1ccc(Cl)cc1` (stereo not given), the inhibition is inactive: 16%.

With `Cc1cc(C)cc(OP(C)(=O)Nc2ccc(SC(F)(F)F)cc2)c1` (stereo not given), the inhibition was inactive: 26.8%.

As to `CCc1ccc(OP(C)(=O)N2CCN(c3ccc([N+](=O)[O-])cc3)CC2)cc1` (stereo not given), the inhibition was inactive: -12.2%.

In the case of `CP(=O)(NC(=O)Nc1ccccc1)Oc1ccccc1` (stereo not given), the inhibition was inactive: -25.6%.

As for `CP(=S)(Nn1cnnc1)Oc1ccccc1` (stereo not given), the inhibition was inactive: -0.17%.

On to `COc1ccccc1OP(C)(=O)Nc1ccccc1` (stereo not given), for which the inhibition is inactive: -17.9%.

Regarding `CP(=O)(Nc1ccccc1Br)Oc1ccccc1` (stereo not given), the inhibition is inactive: -10.6%.

`CCOC(=O)c1ccc(NP(C)(=O)Oc2ccccc2)cc1` (stereo not given): the inhibition is inactive: 1.74%.

On to `Cc1ccc(NP(C)(=O)Oc2ccccc2)c(C)c1` (stereo not given), for which the inhibition was inactive: -27.9%.

`COc1ccccc1OP(C)(=O)Nc1ccc(C)cc1` (stereo not given): the inhibition is inactive: -18.1%.

Turning to `COc1ccc(OP(C)(=O)Nc2cccc(F)c2)cc1` (stereo not given), the inhibition is inactive: -11.6%.

On to `COc1ccccc1OP(C)(=O)Nc1cc(Cl)ccc1C` (stereo not given), for which the inhibition is inactive: -8.12%.

As for `Cc1cc(C)cc(OP(C)(N)=O)c1` (stereo not given), the inhibition is inactive: -3.05%.

In the case of `Cc1cccc(C)c1OP(C)(N)=O` (stereo not given), the inhibition was inactive: -21.8%.

On to `CC(C)(C)c1ccc(OP(C)(=O)Nc2ccc(SC(F)(F)F)cc2)cc1` (stereo not given), for which the inhibition is inactive: 7.17%.

Turning to `O=[N+]([O-])c1ccc2c(c1)C=Nc1ccccc1O2`, the inhibition is inactive: -15.1%.

On to `CCN(CC)CCCOC(=O)C(O)(c1ccccc1)c1ccccc1`, for which the inhibition was inactive: -7.07%.

On to `CP(=O)(Nc1cccc(Br)c1)Oc1ccccc1` (stereo not given), for which the inhibition is inactive: -13.7%.

As to `Cc1cc(C)cc(OP(C)(=O)Nc2ccccn2)c1` (stereo not given), the inhibition is inactive: 3.56%.

In the case of `Cc1ccc(C)c(NP(C)(=O)Oc2ccccc2)c1` (stereo not given), the inhibition was inactive: -10.6%.

As to `COc1ccccc1OP(C)(=O)Nc1cccc(Br)c1` (stereo not given), the inhibition is inactive: 23.6%.

In the case of `Cc1cc(C)cc(OP(C)(=O)Nc2ccc(C)cc2C)c1` (stereo not given), the inhibition is inactive: -34.6%.

Turning to `CCOC(=O)c1ccc(NP(C)(=O)Oc2cc(C)cc(C)c2)cc1` (stereo not given), the inhibition is inactive: -11%.

For `CC1=NCCc2c1[nH]c1ccccc21.O=[N+]([O-])c1cc([N+](=O)[O-])c(O)c([N+](=O)[O-])c1`, the inhibition was inactive: 18%.

As to `O=C(O)c1cccc(Nc2c([N+](=O)[O-])cc([N+](=O)[O-])cc2[N+](=O)[O-])c1`, the inhibition was inactive: -62.9%.

For the compound `COc1ccccc1OP(C)(=O)Nc1c(C)cccc1C` (stereo not given), the inhibition was inactive: -4.56%.

`CN1CCCCC1COC(=O)C1(O)c2ccccc2CCc2ccccc21` (stereo not given): the inhibition is inactive: -17.7%.

For `CP(=O)(Nc1ccc(SC(F)(F)F)cc1)Oc1ccccc1` (stereo not given), the inhibition was inactive: 4.75%.

As for `CCCOc1ccc(NP(C)(=O)Oc2ccc(Cl)cc2)cc1` (stereo not given), the inhibition was inactive: -16.2%.

For `CCOC(=O)C(CC)C1=NC(C)(C)Cc2ccccc21.O=[N+]([O-])c1cc([N+](=O)[O-])c(O)c([N+](=O)[O-])c1` (stereo not given), the inhibition is inactive: -6.3%.

Turning to `O=[N+]([O-])c1cc([N+](=O)[O-])c(Nc2nnnn2CCO)c([N+](=O)[O-])c1`, the inhibition was inactive: -3.24%.

Take `Cc1nc2ccc3ccccc3c2s1.O=[N+]([O-])c1cc([N+](=O)[O-])c(O)c([N+](=O)[O-])c1`: the inhibition was inactive: 5.49%.

As to `O=[N+]([O-])c1cc([N+](=O)[O-])c(-n2nnc3ccccc32)c([N+](=O)[O-])c1`, the inhibition is inactive: -3.1%.

In the case of `CP(=O)(Nc1ccc2c(c1)OCCO2)Oc1ccccc1` (stereo not given), the inhibition was inactive: -18.5%.

Turning to `Cc1ccccc1NP(C)(=O)Nc1ccccc1C`, the inhibition was inactive: -17.7%.

In the case of `CP(=O)(Nc1ccc(SC(F)(F)F)cc1)Oc1ccc(F)cc1` (stereo not given), the inhibition was inactive: -3.53%.

As for `CCOP(C)(=S)SCC(=O)NC(C)(CC)C(=O)O` (stereo not given), the inhibition is inactive: 19.2%.

Consider `O=[N+]([O-])c1cc([N+](=O)[O-])c(NCC2CCS(=O)(=O)C2)c([N+](=O)[O-])c1` (stereo not given), for which the inhibition was inactive: -11.1%.

As for `Cc1cc(-c2cccc3ccccc23)c(C)cn1.O=[N+]([O-])c1cc([N+](=O)[O-])c(O)c([N+](=O)[O-])c1`, the inhibition is inactive: 1.81%.

`O=[N+]([O-])c1ccc(OP2(=O)COCCO2)cc1` (stereo not given): the inhibition is inactive: 9.83%.

On to `COc1ccc(OP(C)(=O)Nc2cccc(Br)c2)cc1` (stereo not given), for which the inhibition is inactive: 6.33%.

On to `COc1ccc(NP(C)(=O)Oc2ccccc2OC)cc1` (stereo not given), for which the inhibition is inactive: -2.72%.

`CN(C)CCOC(=O)C(O)(c1ccccc1)C1CCCCC1` (stereo not given): the inhibition is inactive: -0.86%.

In the case of `CCN(CC)CCCOC(=O)C(O)(c1ccccc1)C1CCCCC1` (stereo not given), the inhibition is inactive: 0.57%.

Regarding `CCCCCOc1ccc(NP(C)(=O)Oc2ccc(Cl)cc2Cl)cc1` (stereo not given), the inhibition was inactive: -30.8%.

Turning to `CP(=O)(Nc1ccccc1)Oc1ccc(F)cc1` (stereo not given), the inhibition was inactive: -2.01%.

For the compound `COc1ccc(OP(C)(=O)Nc2ccc(SC(F)(F)F)cc2)cc1` (stereo not given), the inhibition was inactive: -7.6%.

Turning to `CCOC(=O)c1ccc(NP(C)(=O)Oc2ccc(F)cc2)cc1` (stereo not given), the inhibition is inactive: 4.83%.

With `O=C(OCCN1CCN(CCOCc2ccccc2)CC1)C(O)(c1ccccc1)c1ccccc1`, the inhibition is inactive: -12.3%.

In the case of `O=C(OC1CN2CCC1CC2)c1ccc([N+](=O)[O-])cc1` (stereo not given), the inhibition is inactive: 3.69%.

With `COc1ccc2c(c1O)-c1c(O)c(OC)cc3c1[C@H](C2)[N+](C)(C)CC3.O=[N+]([O-])c1cc([N+](=O)[O-])c([O-])c([N+](=O)[O-])c1[O-]`, the inhibition was inactive: -95.1%.

Take `CC(C)c1ccc(OP(C)(=O)Nc2ccc(SC(F)(F)F)cc2)cc1` (stereo not given): the inhibition was inactive: -30%.

For `CP(=O)(Nc1ccccc1F)Oc1ccccc1` (stereo not given), the inhibition was inactive: 8.42%.

As to `O=[N+]([O-])c1cc([N+](=O)[O-])c(Nc2ccccn2)c([N+](=O)[O-])c1`, the inhibition is inactive: -3.52%.

In the case of `Cc1c(NP(C)(=O)Oc2ccc(C(C)C)cc2)c(=O)n(-c2ccccc2)n1C` (stereo not given), the inhibition was inactive: -18.8%.
